Data from PMC7955166.

Target: MBP-tagged CYRI-B wild-type (mouse) (UniProt Q921M7)
Test: pull-down; MBP-tagged CYRI-B wild-type or mutants immobilised on MBP beads; purified GST-tagged Rac1 Q61L or Q61L S41A in solution; blot, two independent experiments quantified

percent loss of binding against Rac1 Q61L: 30%
Substance: GST-tagged Rac1 Q61L S41A (from UniProt P63000 1-192) (enzyme)
